From US20170246130A1, “4-HYDROXYBENZOHYDARZIDE-A NEW CLASS OF ANGIOGENIC ENZYME THYMIDINE PHOSPHORYLASE INHIBITORS” (priority 2016, published 2017) come the findings set out here.

The chains behind the UniProt entries cited, without tags or fusion partners. Where a name states a change or a piece, a line headed by the entry shows the natural chain unless it says otherwise.
UniProt P07650: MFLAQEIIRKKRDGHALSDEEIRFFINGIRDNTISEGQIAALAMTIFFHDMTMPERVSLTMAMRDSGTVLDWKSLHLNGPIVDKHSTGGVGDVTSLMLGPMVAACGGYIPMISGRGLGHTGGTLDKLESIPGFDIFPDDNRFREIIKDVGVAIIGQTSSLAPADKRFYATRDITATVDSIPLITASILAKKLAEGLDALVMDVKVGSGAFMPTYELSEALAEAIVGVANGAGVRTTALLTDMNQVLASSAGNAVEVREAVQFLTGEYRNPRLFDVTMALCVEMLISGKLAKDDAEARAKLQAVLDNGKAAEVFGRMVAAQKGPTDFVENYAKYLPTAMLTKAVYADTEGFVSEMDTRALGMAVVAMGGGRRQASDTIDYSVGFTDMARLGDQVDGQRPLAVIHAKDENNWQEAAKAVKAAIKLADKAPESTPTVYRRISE

For assay [1], the target named is T1, thymidine phosphorylase (E. coli) (Escherichia coli, UniProt P07650).
T1 construct: purchased Sigma Aldrich, USA; host or cells: Escherichia coli
As to the kind of experiment: In-vitro thymidine phosphorylase inhibition assay (spectrophotometric). It counts as biochemical. The following applies: recombinant E. coli TP, thymidine substrate, pH 7.0, 30° C., 290 nm; read-out: IC50 (μM ± S.E.M.), thymidine phosphorylase inhibition. The method, then: Enzyme thymidine phosphorylase (E. coli) and its substrate thymidine were purchased from Sigma Aldrich, USA, and inhibitor 7-deazaxanthine was purchased from Santa Cruze Biotechnology Inc., USA. In vitro studies on thymidine phosphorylase were carried out in 96-well microtiter plate using Spectra Max-340 and Spectra Max-384 spectrophotometers (Molecular Devices, CA, USA). Deionized water used for buffer preparation was collected by Simplicity Water Purification System (Milipore).
Since human TP is not commercially available, we used commercially available recombinant E. coli TP (expressed in Escherichia coli) enzyme. Primary sequence of TP is mostly conserved throughout the evolution as mammalian TP share 39% sequence similarity with TP of E. coli. The mammalian enzyme also shared 65-70% similarity with the active site residues of E. coli TP enzyme (Bronckaers et al., 2009). Assay for thymidine phosphorylase inhibition was performed spectrophotometrically, following method of Bera et al. with some modifications (Bera et al., 2013). […]
The enzyme inhibitory activities were calculated using the following formula: […]
The IC50 of the compounds was calculated using EZ-Fit Enzyme Kinetic Program (Perrella Scientific Inc., Amhrest, U.S.A.).

Assay [2] concerns the target T1, thymidine phosphorylase (E. coli). As to the kind of experiment: Kinetic (mechanistic) studies on thymidine phosphorylase. The class given is biochemical. The following applies: thymidine as variable substrate; secondary re-plot, confirmed by Dixon plot; read-out: Ki (μM ± S.E.M.), dissociation constant. The method, then:
These studies disclose the mechanism of inhibitor binding to enzyme. Kinetic studies were carried out using thymidine as variable substrate. […] This was deduced from Lineweaver Burk plot. This compound therefore, interacted either with the amino acids of hydrophobic pocket of the enzyme or at allosteric site of the enzyme. […] Uncompetitive inhibitors encountered enzyme only when enzyme-substrate complex has been formed, enzyme-substrate complex formation was proposed to induce a conformational changes in the enzyme which facilitate the binding of inhibitor. Uncompetitive inhibitor causes decrease in both Km and Vmax values of the enzyme (Figure-6). […] Ki values were determined by secondary re-plot, and confirmed by Dixon plot.
Kinetic studies were carried out to find the mechanism of inhibitor action. Inhibitor could bind with enzyme in multiple ways such as in competitive, non-competitive, mixed or uncompetitive way. […] The reactions was then initiated by adding different concentrations (0.1875 mM-1.5 mM) of substrate (thymidine) and the resulting degradation of thymidine was measured continuously at 290 nm for 10 min on a ELISA plate reader. […]
Line-weaver Burk plot was plotted to determine the type of inhibition. […] Ki values were determined by secondary re-plot, and reconfirmed by Dixon plot. The Ki was determined by non-linear regression equation.

In the case of `Oc1nc(O)c2cc[nH]c2n1` [7-Deazaxanthine, 2,4-Dihydroxypyrrolo[2,3-d]pyrimidine, reference compound], the IC50 (commonly the point on the concentration scale where inhibition reaches its midpoint) in assay [1] worked out at 41 ± 1.63 µM. Moreover, the Ki (in general, a dissociation constant, usually derived from enzyme kinetics or from competition with a known ligand) in assay [2] was 45.66 ± 0.0009 µM.
